# Laboratory results: PubChem BioAssay AID686979 (National Center for Advancing Translational Sciences (NCATS), 2013)
# This is a selection; strong and weak results do not stand in their true shares. Records with an inconclusive call do not appear. The source made the active and inactive calls. Calls come from the whole dose curve; as a rule, active = well fitted inhibition curve with a large enough effect; inconclusive = small, poorly fitted or top-dose-only effect; inactive = flat fitted curve, though single readings scatter.
# Experiment: qHTS for Inhibitors of human tyrosyl-DNA phosphodiesterase 1 (TDP1): qHTS in cells in presence of CPT; note: nearly all actives have a fitted effect of over 55% in size
# Conditions: chicken DT40 Tdp1-/-;hTDP1 cells + 20 nM CPT, ATP luminescence, 48 h; series mostly up to 46.2 µM; activity change, negative = growth inhibition: at the top concentration
# % is set by controls: 0 for no effect and ±100 for the full control effect; potency is the fitted concentration of half-maximal effect.
SMILES,Potency,"activity change, negative = growth inhibition"
Clc1ccc(Cl)c(NC2=NCC(CBr)S2)c1 (stereo not given),active: 18.4 µM,–
CCNC(C)Cc1ccc2c(c1)OCO2 (stereo not given),–,inactive: -29.1% [at 92.5 µM]
NC(=O)c1cc([N+](=O)[O-])cc([N+](=O)[O-])c1N,–,inactive: -0.749%
Cc1ccc(N/C(=N/P(=O)(N2CCOCC2)N2CCOCC2)N2CCOCC2)cc1,–,inactive: 1.55%
CCN(N=Nc1nonc1N)c1nonc1N,–,inactive: 2.01%
Nc1cccc2ccc([As](=O)(O)O)cc12,–,inactive: -0.108%
CCOP(=O)(Nc1ccccc1)OCC,–,inactive: -7.9%
Cc1ccc(NP(=O)(Oc2ccccc2F)Oc2ccccc2F)nc1,–,inactive: 9.03%
CC(=O)Nc1ccc([As](=O)(O)O)cc1,–,inactive: 6.12%
O=C(O)c1ccccc1[As](=O)(O)O,–,inactive: 0.964%
CCCC1OP(N)(=O)OCC1CC (stereo not given),–,inactive: -6.29%
O=P(Nc1nc2ccc(Cl)cc2s1)(c1ccccc1)c1ccccc1,–,inactive: -8.98%
COC(=O)C1(C)COP(=O)(Nc2ccccc2)OC1 (stereo not given),–,inactive: 12.2%
O=[N+]([O-])c1cccc(NC2=NCC(CBr)S2)c1 (stereo not given),active: 14.6 µM,–
O=C(O)CNc1ccc([As](=O)(O)O)cc1,–,inactive: 0.243%
CC(C)(C)C(=O)NC(Sc1ccncn1)C(Cl)(Cl)Cl (stereo not given),–,inactive: -6.77%
O=[N+]([O-])c1ncn(CCn2ncnc2[N+](=O)[O-])n1,–,inactive: -5.97%
O=P(/N=c1/nc(-c2ccccc2)n(-c2ccccc2)s1)(Nc1ccccc1)Nc1ccccc1,active: 7.08 µM,–
O=C(Nc1cc([As](=O)(O)O)ccc1O)c1ccccc1,–,inactive: 9.56%
O=P1(N(CCCl)CCCl)OCCCS1 (stereo not given),–,inactive: 4.95%
COc1cc([N+](=O)[O-])c([N+](=O)[O-])cc1OC,active: 10 µM,–
CC(C)=N/N=C(\N)N[N+](=O)[O-],–,inactive: 2.95%
CC(=O)C1=CCCC2CCC1N2 (stereo not given),–,inactive: 1.79%
CC1CCN(C(=O)Oc2c(Cl)cc(Cl)c3cccnc23)CC1,–,inactive: -27.9%
c1cc(-c2nn[nH]n2)ccc1-c1nn[nH]n1,–,inactive: -16.9%
Nc1ccc([As](=O)(O)c2ccc(N)cc2)cc1,–,inactive: 2.15%
CCN(/C(=N/P(=O)(N1CCOCC1)N1CCOCC1)N1CCOCC1)c1ccc(OC)cc1,–,inactive: 3.91%
O=[N+]([O-])c1cccc2n[nH]nc12,–,inactive: -29.4%
CC(=O)N1C2C3N(C(C)=O)C1C1N(C(C)=O)C(C(N1C(C)=O)N3C(C)=O)N2C(C)=O,–,inactive: -1.36%
Cc1ccc(NP(=O)(Oc2ccccc2)Oc2ccccc2)nc1,–,inactive: -17.8%
